These results are taken from paper PMC9107402, “Evaluation of CYP2C19 activity using microdosed oral omeprazole in humans” (European Journal of Clinical Pharmacology, 2022).

Each structure is given as a SMILES string.

For this series, the system named is CYP2C19. The following applies: human, in vivo, po, 100 ug. The procedure:
This was an open-label clinical trial with fixed sequence design consisting of a total of seven inpatient study days and eight short visits for each participant.
The CYP2C19 perpetrator fluconazole (Fluconazol HEXAL® 200 mg, HEXAL) was given for 5 days in oral doses of 400 mg on day 1 and 200 mg on days 2 to 5. […] A diary was used to ensure correct intake of fluconazole and rifampicin at home.
Blood samples were centrifuged for 10 min at 2500 g and 4 °C, and separated plasma was distributed into 4 aliquots, each stored at − 20 °C until analysis.
The statistical analysis was performed using Prism 8.4 (GraphPad Software Inc., La Jolla, CA, USA).

In turn, `COc1ccc2[nH]c([S+]([O-])Cc3ncc(C)c(OC)c3C)nc2c1` (stereo not shown) [omeprazole] showed a VSS of 26.1 L.
